Data published in patent US7459444B2, “Inhibitors of chymase” (Janssen Pharmaceutica N.V., priority 2004, dated 2008).

Chains of the proteins cited; added tags and fusions are not shown. Residues count along the entry.
UniProt P23946, 22-247 limits assumed: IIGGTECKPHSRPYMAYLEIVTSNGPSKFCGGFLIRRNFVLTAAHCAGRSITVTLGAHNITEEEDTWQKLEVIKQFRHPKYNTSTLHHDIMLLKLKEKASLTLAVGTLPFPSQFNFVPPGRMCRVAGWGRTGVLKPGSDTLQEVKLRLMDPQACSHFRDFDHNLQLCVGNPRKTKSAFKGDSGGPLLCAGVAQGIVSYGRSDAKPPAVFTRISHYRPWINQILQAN

These molecules were tested against human skin chymase (Homo sapiens, UniProt P23946) (assay: Enzyme-catalyzed hydrolysis assay (chymase inhibition)). Conditions: read-out: IC50 (μM) Chymase; 10 nM enzyme, 0.7 mM Suc-Ala-Ala-Pro-Phe-pNa, pH 8.0, 37° C., 30 minutes.
Format: biochemical

Q: Which IC50 does the source give for `O=C(Nc1cc2ccccc2cc1C(=O)N1CCC(c2ccncc2)C1)C(c1cccc2ccccc12)P(=O)(O)O` (stereo not shown) here?
A: 1.35 µM

Q: `O=C(Nc1ccc2ccccc2c1)C(c1csc2ccc(Cl)cc12)P(=O)(O)CCCc1cccc2ccccc12` (stereo not shown) was tested. Which IC50 did it give?
A: 0.32 µM

Q: For `COC(=O)CCCCCNCc1cc2ccccc2cc1NC(=O)C(c1cccc2ccccc12)P(=O)(O)O` (stereo not shown), which IC50 is on record?
A: 2.4 µM

Q: For `CP(=O)(O)C(C(=O)Nc1ccc2ccccc2c1)c1c(C(=O)N2CCN(C(=O)OCc3ccccc3)CC2)sc2ccccc12` (stereo not shown), which IC50 is on record?
A: 0.33 µM

Q: How did the IC50 turn out when `Cc1ccc(/C=C/NC(=O)C(c2csc3ccc(Cl)cc23)P(=O)(O)O)cc1` (stereo not shown) was run?
A: 0.34 µM

Q: How did the IC50 turn out when `O=C(Nc1ccc2c(c1)OCO2)C(c1cccc2ccccc12)P(=O)(O)O` (stereo not shown) was run?
A: 8.3 µM

Q: Which IC50 does the source give for `O=C(Nc1cc2ccccc2cc1CNC1CCC(O)CC1)C(c1cccc2ccccc12)P(=O)(O)O` (stereo not shown) here?
A: 5.62 µM
